Legend:
[1] = biological target: T1, mu-opioid receptor (C6mu membranes) (Rattus norvegicus, UniProt P33535); test: [35S]GTPγS binding in C6mu cell membranes; assay type: biochemical
[2] = biological target: mu-opioid receptor (OPRM1) (Homo sapiens, UniProt P35372); test: β-arrestin recruitment assay (PathHunter) in U2OS-OPRM1 cells
[3] = biological target: delta opioid receptor (OPRD1) (Homo sapiens, UniProt P41143); test: β-arrestin recruitment assay (PathHunter) in U2OS-OPRD1 cells; assay type: cell-based
[4] = biological target: T1, mu-opioid receptor (C6mu membranes); test: [3H]diprenorphine saturation binding in C6mu membranes; conditions: 10 uM modulator
[5] = biological target: T1, mu-opioid receptor (C6mu membranes); test: DAMGO competition binding with [3H]diprenorphine in C6mu membranes; conditions: 10 uM modulator

Amino acid sequences for entries named in this document (tags omitted).
UniProt P33535, whole entry: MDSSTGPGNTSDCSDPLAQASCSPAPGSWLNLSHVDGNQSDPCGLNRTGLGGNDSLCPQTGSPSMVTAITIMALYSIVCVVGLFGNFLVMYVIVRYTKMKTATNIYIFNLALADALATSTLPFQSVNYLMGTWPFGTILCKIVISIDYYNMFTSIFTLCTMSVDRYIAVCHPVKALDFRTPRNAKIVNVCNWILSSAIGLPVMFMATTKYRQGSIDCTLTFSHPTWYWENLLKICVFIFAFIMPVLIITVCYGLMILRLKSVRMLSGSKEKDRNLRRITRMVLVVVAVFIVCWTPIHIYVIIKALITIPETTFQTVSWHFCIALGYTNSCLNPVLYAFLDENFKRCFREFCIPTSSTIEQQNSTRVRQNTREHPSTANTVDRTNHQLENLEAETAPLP
UniProt P35372, whole entry: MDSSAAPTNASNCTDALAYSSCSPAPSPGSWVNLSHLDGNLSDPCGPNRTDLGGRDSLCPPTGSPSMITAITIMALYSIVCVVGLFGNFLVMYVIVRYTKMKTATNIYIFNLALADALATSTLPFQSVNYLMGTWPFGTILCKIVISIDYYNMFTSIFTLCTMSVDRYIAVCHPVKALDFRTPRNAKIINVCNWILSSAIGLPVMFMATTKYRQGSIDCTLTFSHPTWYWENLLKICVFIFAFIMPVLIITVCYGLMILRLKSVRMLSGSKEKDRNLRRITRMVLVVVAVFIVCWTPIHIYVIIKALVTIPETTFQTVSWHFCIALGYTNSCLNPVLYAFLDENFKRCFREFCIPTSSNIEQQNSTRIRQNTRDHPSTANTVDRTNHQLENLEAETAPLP
UniProt P41143, whole entry: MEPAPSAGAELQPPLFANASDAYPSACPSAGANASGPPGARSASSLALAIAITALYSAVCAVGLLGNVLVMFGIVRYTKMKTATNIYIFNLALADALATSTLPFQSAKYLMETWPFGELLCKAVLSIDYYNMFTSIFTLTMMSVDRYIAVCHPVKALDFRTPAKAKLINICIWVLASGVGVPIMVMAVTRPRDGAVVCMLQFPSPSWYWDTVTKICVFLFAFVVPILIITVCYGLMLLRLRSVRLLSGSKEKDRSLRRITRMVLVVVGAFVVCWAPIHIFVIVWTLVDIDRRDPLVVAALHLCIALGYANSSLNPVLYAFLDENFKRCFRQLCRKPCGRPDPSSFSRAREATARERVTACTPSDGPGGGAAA

COc1ccc(C2SCCN2S(=O)(=O)c2ccc(C)cc2)cc1[N+](=O)[O-] (centres unmarked)
effect on DAMGO potency in [35S]GTPγS assay ([1]; 10 uM modulator): not significantly increased | effect on morphine Emax in [35S]GTPγS assay ([1]; 10 uM modulator): increased morphine Emax to a small degree | effect on morphine potency in [35S]GTPγS assay ([1]; 10 uM modulator): not significantly increased | agonist activity of modulator in [35S]GTPγS binding ([1]; modulator alone): No significant agonist activity was detected | β-arrestin recruitment, PAM detection mode activity ([2]; U2OS-OPRM1, ~EC10 endomorphin-I): no activity | Description (PAM efficacy class / SAM) ([2]; U2OS-OPRM1, β-arrestin PAM and SAM detection modes): SAM | β-arrestin recruitment, agonist detection mode (compound alone) ([2]; U2OS-OPRM1 cells, no orthosteric agonist): no activity | β-arrestin recruitment, agonist detection mode ([3]; U2OS-OPRD1, no leu-enkephalin): no activity | β-arrestin recruitment, PAM detection mode ([3]; U2OS-OPRD1, ~EC10 (0.4 nM) leu-enkephalin): no activity | decrease in [3H]diprenorphine binding affinity [4]: 2 fold | effect on DAMGO binding affinity [5]: no significant effect

— US9784740B2 (priority 2013, dated 2017)
